Reference: patent US20260174739A1 (priority 2022, published 2026)

Amino acid sequences for entries named in this document (tags omitted).
UniProt Q01959, whole entry: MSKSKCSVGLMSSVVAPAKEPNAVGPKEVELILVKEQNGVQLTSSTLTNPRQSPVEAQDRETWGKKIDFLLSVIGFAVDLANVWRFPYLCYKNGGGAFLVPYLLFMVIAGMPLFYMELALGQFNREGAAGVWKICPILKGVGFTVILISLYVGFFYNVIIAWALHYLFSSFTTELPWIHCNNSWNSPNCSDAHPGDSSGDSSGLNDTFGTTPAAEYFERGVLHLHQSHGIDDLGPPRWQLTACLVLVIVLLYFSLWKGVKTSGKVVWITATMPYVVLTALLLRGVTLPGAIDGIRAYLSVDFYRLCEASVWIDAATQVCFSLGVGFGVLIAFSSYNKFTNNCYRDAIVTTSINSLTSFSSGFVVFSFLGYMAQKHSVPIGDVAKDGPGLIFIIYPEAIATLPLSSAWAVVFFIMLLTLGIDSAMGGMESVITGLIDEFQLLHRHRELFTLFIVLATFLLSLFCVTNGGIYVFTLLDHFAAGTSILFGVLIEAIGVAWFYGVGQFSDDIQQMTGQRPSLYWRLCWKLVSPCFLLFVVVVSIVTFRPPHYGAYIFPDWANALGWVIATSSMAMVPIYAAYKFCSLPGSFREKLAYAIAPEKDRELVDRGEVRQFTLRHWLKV
UniProt P31645, whole entry: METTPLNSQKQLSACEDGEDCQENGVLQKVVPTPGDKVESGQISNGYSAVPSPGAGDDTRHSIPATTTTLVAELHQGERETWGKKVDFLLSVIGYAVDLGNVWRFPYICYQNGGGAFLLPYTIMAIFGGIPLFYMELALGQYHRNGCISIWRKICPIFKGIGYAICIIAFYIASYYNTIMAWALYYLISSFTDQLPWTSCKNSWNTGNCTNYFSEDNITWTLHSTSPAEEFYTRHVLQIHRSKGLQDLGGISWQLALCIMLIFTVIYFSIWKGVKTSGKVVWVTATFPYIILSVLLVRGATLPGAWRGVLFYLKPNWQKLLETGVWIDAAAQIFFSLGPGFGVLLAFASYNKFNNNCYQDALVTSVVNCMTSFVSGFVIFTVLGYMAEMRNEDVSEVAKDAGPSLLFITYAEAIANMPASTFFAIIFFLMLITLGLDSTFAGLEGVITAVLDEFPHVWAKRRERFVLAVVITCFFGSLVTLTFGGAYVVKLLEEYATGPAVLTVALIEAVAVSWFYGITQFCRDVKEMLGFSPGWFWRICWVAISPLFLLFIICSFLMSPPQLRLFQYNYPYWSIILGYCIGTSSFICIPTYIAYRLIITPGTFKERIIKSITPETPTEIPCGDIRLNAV

Experiments:
human DAT = human DAT (Homo sapiens, UniProt Q01959); experiment: DAT transporter inhibitory activity test (neurotransmitter transporter uptake assay kit); format: cell-based; details: read-out: DAT (IC50); DAT stably transfected HEK cells
human SERT = human SERT (Homo sapiens, UniProt P31645); experiment: Inhibitory activity assay against 5-HT transporter (neurotransmitter transporter uptake assay kit); format: cell-based; details: read-out: 5-HTT (IC50); HEK-293 cells overexpressing human SERT

## CN[C@@]1(c2ccccc2)CCc2ccsc2C1
Human DAT
  IC50: 0.25 µM

## N[C@]1(c2ccccc2)CCc2sccc2C1
Human SERT
  IC50: 0.71 µM

## CN[C@]1(c2ccccc2)CCc2sccc2C1
Human SERT
  IC50: 0.9 µM

## N[C@@]1(c2ccccc2)CCc2sccc2C1
Human DAT
  IC50: 2.2 µM

## CN[C@@]1(c2ccccc2)CCc2sccc2C1
Human DAT
  IC50: 0.81 µM

## CN[C@]1(c2ccccc2)CCc2ccsc2C1
Human SERT
  IC50: 0.91 µM
